For data set [1] the following is noted: room temperature.
For data set [2] the following is noted: 10 mg/ml solution in water at room temperature.

With dicholine ellagate, the Solubility in water in data set [1] is given as 187 mg/mL. In data set [2], this substance registered a pH of 7.0.
